This is an account of results in ChEMBL document CHEMBL2163249, “Exploration of natural compounds as sources of new bifunctional scaffolds targeting cholinesterases and beta amyloid aggregation: the case of chelerythrine” (Bioorg Med Chem, 2012).

The chains behind the UniProt entries cited, without tags or fusion partners. Where a name states a change or a piece, a line headed by the entry shows the natural chain unless it says otherwise.
UniProt O42275: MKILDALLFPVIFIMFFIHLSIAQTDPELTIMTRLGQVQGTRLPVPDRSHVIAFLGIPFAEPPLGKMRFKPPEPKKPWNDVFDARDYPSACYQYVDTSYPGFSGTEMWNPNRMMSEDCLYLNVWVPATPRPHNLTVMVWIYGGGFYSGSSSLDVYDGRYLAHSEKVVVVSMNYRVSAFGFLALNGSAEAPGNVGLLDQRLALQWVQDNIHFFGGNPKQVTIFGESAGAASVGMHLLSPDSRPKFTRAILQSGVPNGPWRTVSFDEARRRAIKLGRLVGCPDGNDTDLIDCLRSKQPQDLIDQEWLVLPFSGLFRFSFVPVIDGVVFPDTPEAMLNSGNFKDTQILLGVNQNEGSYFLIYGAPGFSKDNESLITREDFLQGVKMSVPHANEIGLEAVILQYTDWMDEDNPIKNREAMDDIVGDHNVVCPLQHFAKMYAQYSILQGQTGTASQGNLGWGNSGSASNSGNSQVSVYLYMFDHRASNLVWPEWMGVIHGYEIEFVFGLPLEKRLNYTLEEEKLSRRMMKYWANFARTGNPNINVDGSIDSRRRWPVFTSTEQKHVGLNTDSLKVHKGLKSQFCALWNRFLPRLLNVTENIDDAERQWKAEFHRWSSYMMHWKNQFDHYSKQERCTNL
UniProt P81908, whole entry: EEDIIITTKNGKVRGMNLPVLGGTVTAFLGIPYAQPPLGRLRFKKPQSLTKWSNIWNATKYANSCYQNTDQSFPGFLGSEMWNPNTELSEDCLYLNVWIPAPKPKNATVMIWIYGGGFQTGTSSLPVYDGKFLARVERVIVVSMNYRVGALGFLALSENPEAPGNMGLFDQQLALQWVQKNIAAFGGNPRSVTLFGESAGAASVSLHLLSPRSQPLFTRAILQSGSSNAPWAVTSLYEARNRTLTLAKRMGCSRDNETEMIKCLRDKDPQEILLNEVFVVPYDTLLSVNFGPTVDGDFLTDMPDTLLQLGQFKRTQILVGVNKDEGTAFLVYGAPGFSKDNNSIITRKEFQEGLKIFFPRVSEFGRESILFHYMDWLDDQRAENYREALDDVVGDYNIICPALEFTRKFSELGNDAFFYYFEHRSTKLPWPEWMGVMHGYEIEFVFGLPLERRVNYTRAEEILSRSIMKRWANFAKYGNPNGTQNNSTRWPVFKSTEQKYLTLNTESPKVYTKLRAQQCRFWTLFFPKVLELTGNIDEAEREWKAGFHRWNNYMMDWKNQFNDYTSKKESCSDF

SMILES strings stand for the structures.

The target of assay [1] is Acetylcholinesterase (Electrophorus electricus) (UniProt O42275). To be noted: at 2 mg/mL.
The target in assay [2] is Cholinesterase (Equus caballus) (UniProt P81908). To be noted: 10 uM.
Assay [3] has the same target. To be noted: at 2 mg/mL.

By inhibition is commonly meant the relative decrease from the control value, in per cent. Take `COc1cc2c3cc1Oc1c(OC)c(OC)cc4c1[C@@H](Cc1ccc(OC(=O)c5ccc([N+](=O)[O-])cc5)c(c1)Oc1ccc(cc1)C[C@@H]3N(C)CC2)N(C)CC4` [E6 BERBAMINE]: the inhibition in assay [1] was -0.39%. Regarding `C[C@@H]1OC(=O)[C@H]2C[C@H]3CCCC[C@@H]3[C@@H](/C=C/[C@H]3CCC[C@H](C)N3C)[C@@H]12` [HIMBACINE], the inhibition in assay [2] and in assay [3] was 30.1% throughout.

`CC[C@H]1CN2CCc3c([nH]c4ccccc34)[C@H]2C[C@@H]1/C(=C\OC)C(=O)OC` [HIRSUTINE]: the inhibition in assay [1] was determined as 9.09%. Turning to `OC1c2ccccc2N=C2CCCN21` (configuration not stated) [PEGANOLE], in assay [1], the inhibition came to 39.3%. As for `C[C@@H]1CC[C@H]2[C@H](C)[C@H]3CC[C@@]4(O)[C@@H]5CC(=O)[C@H]6CC(=O)CC[C@]6(C)[C@H]5C[C@H]4[C@@H]3CN2C1` [SEVEDINDIONE], the inhibition in assay [1] was 22.1%. Take `O[C@H]1CCN2Cc3ccccc3N=C12` [VASICINE]: in assay [1], the inhibition was determined as 30.1%.
